The text below walks through data of ChEMBL document CHEMBL3108731, “A development of chimeric VEGFR2 TK inhibitor based on two ligand conformers from PDB: 1Y6A complex--medicinal chemistry consequences of a TKs analysis” (Eur J Med Chem, 2014).

The chains behind the UniProt entries cited, without tags or fusion partners.
UniProt P35968, whole entry: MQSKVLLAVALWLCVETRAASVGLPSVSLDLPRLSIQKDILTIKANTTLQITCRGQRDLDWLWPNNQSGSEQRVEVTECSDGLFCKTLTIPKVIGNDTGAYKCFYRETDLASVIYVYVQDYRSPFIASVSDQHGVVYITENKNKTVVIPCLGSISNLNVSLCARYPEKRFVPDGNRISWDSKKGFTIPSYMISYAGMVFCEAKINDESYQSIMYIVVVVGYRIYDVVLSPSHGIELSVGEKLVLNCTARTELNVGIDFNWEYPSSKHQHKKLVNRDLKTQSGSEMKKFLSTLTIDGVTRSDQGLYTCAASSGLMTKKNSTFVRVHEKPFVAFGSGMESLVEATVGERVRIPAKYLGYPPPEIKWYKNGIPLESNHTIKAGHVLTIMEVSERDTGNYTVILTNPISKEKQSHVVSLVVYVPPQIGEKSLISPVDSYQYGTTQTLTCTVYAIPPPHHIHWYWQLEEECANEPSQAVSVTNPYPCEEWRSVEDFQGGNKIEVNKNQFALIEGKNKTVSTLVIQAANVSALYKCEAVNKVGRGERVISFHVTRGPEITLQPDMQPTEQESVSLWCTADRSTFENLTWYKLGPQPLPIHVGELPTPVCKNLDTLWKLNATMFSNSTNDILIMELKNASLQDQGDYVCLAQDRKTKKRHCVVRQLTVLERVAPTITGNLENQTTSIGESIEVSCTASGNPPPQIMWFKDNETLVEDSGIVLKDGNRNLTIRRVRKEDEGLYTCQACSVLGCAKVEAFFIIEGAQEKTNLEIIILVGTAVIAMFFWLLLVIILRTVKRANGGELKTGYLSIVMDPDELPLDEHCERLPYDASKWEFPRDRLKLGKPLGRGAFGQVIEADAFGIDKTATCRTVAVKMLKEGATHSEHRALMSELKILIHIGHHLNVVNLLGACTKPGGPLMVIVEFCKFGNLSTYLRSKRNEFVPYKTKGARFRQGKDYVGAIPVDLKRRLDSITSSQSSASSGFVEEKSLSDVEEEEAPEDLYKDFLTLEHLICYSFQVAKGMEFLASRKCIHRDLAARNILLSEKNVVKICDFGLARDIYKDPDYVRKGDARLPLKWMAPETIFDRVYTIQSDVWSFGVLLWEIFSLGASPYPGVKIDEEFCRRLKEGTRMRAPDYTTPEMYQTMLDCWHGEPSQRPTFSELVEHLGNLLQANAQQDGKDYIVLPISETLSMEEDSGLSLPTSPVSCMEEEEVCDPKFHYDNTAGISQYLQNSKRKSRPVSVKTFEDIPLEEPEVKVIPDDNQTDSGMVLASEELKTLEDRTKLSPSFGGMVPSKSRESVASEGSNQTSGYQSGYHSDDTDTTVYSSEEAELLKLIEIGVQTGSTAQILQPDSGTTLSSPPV

This assay concerns the target Vascular endothelial growth factor receptor 2 (Homo sapiens, UniProt P35968). As to the kind of experiment: Inhibition of GST-tagged recombinant human VEGFR2 expressed in Sf9 cells by radiometric assay. The class given is cell-based.

A word on the IC50: it is the concentration that inhibits the measured activity by half. Regarding `CCS(=O)(=O)c1ccc(OC)c(Nc2ncc(-c3cccc(-c4ccccn4)c3)o2)c1`, the 50% inhibitory concentration (IC50) came to 0.0171 µM.
